From publication PMC12396409, “Screening and hit evaluation of a microbial metabolite library against the pathogenic Plasmodium falciparum and Toxoplasma gondii parasites” (International Journal for Parasitology: Drugs and Drug …, 2025)

How the values were obtained:
[1] = tested on: P. falciparum 3D7 parasites; assay: P. falciparum growth inhibition assay, 1-cycle (72 h treatment), SYBR DNA staining (library screen at 2 μg/mL and dose-response); type: cell-based, Plasmodium falciparum
[2] = tested on: P. falciparum 3D7 parasites; assay: P. falciparum growth inhibition assay, 2-cycle (120 h treatment), delayed-death screen and dose-response
[3] = Plasmodium falciparum, 3D7, 72 h, read-out: Pf_72h_%Growth_Rep1
[4] = Plasmodium falciparum, 3D7, 72 h, read-out: Pf_72h_%Growth_Rep2
[5] = Plasmodium falciparum, 3D7, 120 h, read-out: Pf_120h_%Growth_Rep1
[6] = Plasmodium falciparum, 3D7, 120 h, read-out: Pf_120h_%Growth_Rep2

Row | SMILES | activity at 2 µg/mL ([1]; Plasmodium falciparum, 3D7, 72 h, read-out: 1) Growth (%) at 72 h) [%] | activity at 2 µg/mL [1, 3] [%] | activity at 2 µg/mL [1, 4] [%] | 3) Fold change (72 h/120 h) [2] | activity at 2 µg/mL ([2]; Plasmodium falciparum, 3D7, 120 h, read-out: 2) Growth (%) at 120 h) [%] | activity at 2 µg/mL [2, 5] [%] | activity at 2 µg/mL [2, 6] [%] | selectivity index (HFF cells) | selectivity for P. falciparum in the screens [1]
1 | CCC[C@@H]1C[C@@H](C(=O)N[C@@H]([C@H]2O[C@H](SC)[C@H](O)[C@@H](O)[C@H]2O)[C@H](C)Cl)N(C)C1 [Clindamycin hydrochloride, reference compound] | 40 | 42.4 | 37.5 | 14.5 | 2.75 | 8.87 | -3.37 |  | 
2 | COc1ccc2c3c(c4cc(OC)c(OC)cc4c2c1)C[C@H]1CCCCN1C3 [Cryptopleurine] |  |  |  |  |  |  |  | 2.5 | 
3 | O=C(O)c1cccc(C(=O)O)n1 [Dipicolinic acid] |  | 83.1 | 35.9 |  |  | 81.8 | 110 |  | 
4 | CN(C)c1ccc(O)c2c1C[C@H]1C[C@H]3[C@H](N(C)C)C(O)=C(C(N)=O)C(=O)[C@@]3(O)C(O)=C1C2=O [Minocycline HCl, reference compound] |  |  |  |  |  |  |  |  | selective for P. falciparum

Counter-ions that a name gives are not always drawn.
